{"sequences": {"note": "Protein sequences, listed by entry. Tags and fused reporters are not part of them.", "UniProt Q12809, whole entry": "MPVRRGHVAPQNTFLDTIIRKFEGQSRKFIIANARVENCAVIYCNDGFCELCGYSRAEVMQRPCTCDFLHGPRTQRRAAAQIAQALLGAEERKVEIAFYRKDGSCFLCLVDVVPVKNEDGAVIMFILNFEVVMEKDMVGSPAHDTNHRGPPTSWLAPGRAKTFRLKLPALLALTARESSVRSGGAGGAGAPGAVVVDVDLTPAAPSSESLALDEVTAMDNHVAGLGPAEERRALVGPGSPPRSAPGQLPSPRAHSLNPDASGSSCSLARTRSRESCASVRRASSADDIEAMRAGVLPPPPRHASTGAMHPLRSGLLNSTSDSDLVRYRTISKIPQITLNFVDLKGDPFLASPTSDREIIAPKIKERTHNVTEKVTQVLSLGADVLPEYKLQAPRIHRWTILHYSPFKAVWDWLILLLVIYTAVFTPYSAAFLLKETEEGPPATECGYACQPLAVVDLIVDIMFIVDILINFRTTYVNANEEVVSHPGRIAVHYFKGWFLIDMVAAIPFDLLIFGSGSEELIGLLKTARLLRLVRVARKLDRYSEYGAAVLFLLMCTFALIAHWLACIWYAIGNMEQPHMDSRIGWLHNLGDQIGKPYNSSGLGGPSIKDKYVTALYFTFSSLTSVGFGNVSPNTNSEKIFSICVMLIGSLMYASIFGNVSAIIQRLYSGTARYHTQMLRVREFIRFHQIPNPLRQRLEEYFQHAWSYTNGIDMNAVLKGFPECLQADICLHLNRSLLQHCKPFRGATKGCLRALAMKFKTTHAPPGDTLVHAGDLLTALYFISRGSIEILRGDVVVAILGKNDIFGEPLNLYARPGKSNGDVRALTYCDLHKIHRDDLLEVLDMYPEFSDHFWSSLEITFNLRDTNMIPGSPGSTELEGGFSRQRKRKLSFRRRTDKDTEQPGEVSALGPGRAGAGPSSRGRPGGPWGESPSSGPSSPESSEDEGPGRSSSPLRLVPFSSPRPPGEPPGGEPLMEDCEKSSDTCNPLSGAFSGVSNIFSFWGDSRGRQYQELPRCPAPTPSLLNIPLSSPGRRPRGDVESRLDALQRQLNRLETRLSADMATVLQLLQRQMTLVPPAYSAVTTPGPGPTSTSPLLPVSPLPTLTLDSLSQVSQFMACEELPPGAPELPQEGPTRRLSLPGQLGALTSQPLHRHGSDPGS"}, "source": "paper PMC10847579", "about": "“Recording ten-fold larger IKr conductances with automated patch clamping using equimolar Cs^+ solutions” (Frontiers in Physiology, 2024)", "key": {"hERG channel [1]": {"target": "T1, hERG channel (Homo sapiens, UniProt Q12809)", "assay": "Automated patch clamp (Nanion Patchliner) of hERG current in CHO-hERG cells with K+ solutions", "type": "cell-based"}, "hERG channel [2]": {"target": "T1, hERG channel", "assay": "Automated patch clamp (Nanion Patchliner) of hERG current in CHO-hERG cells with equimolar Cs+ solutions", "type": "cell-based"}, "[3]": {"settings": "two-way ANOVA with Dunnett's test vs control"}}}
{"molecule": "O=C(COc1ccc(C(=O)c2cccc(Cl)c2)cc1)Nc1cccnc1", "values": [{"measurement": "Log(EC50)", "setting": "hERG channel [1]; activation, printed as log with negative sign, tail current at +40 mV", "result": "−5.8 (EC50)"}, {"measurement": "increase of maximal K+ step conductance", "setting": "hERG channel [1]; between control and 30 μM", "result": 10.1, "unit": "×"}, {"measurement": "increase of maximal K+ tail conductance", "setting": "hERG channel [1]; between control and 30 μM", "result": 4.9, "unit": "x"}, {"measurement": "EC50", "setting": "hERG channel [1]; read-out: EC50 Conc., activation, tail current at +40 mV", "result": 1.6, "unit": "µM"}, {"measurement": "Hill coef.", "setting": "hERG channel [1]; tail current at +40 mV", "result": 1.4}, {"measurement": "effect on K+ step conductance upon treatment", "setting": "hERG channel [1]; tested concentration range", "result": "strong dose-dependent increase"}, {"measurement": "effect on K+ tail conductance upon treatment", "setting": "hERG channel [1]; tested concentration range", "result": "strong dose-dependent increase"}, {"measurement": "concentration from which K+ step conductance is significantly changed", "setting": "hERG channel [1]; [3]", "result": 3, "unit": "µM"}, {"measurement": "concentration from which K+ tail conductance is significantly changed", "setting": "hERG channel [1]; [3]", "result": 3, "unit": "µM"}, {"measurement": "Log(IC50)", "setting": "hERG channel [2]; printed as log(IC50) with negative sign, maximal tail current at +40 mV, Hill fit, 22°C", "result": "−5.7"}, {"measurement": "concentration corresponding to relative log (IC50)", "setting": "hERG channel [2]; relative IC50, tail current", "result": 0.3, "unit": "µM"}, {"measurement": "relative log (IC50)", "setting": "hERG channel [2]; relative instead of absolute IC50, given with negative sign, tail current", "result": "−6.5"}, {"measurement": "Hill coef.", "setting": "hERG channel [2]; tail current at +40 mV", "result": "−0.2"}, {"measurement": "effect on Cs+ step conductance upon treatment", "setting": "hERG channel [2]; tested concentration range", "result": "lower compared to control at voltages below the reversal potential (0 mV) and higher when tested above the reversal potential"}, {"measurement": "effect on Cs+ tail conductance upon treatment", "setting": "hERG channel [2]; tested concentration range", "result": "decreased upon treatment"}]}
